{"sequences": {"note": "Amino acid sequences for entries named in this document (tags omitted). A change or cut given only in a name is not applied to a line headed by its entry.", "UniProt P31391": "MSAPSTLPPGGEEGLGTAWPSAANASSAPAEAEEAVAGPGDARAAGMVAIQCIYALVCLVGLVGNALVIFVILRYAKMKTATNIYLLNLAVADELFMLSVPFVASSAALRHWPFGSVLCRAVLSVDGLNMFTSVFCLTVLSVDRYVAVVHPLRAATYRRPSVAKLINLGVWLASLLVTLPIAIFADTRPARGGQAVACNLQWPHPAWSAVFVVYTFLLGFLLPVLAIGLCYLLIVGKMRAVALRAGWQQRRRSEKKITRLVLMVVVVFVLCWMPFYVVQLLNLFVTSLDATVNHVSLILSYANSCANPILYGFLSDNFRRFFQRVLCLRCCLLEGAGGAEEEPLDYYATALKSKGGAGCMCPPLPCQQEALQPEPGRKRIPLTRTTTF"}, "source": "ChEMBL document CHEMBL1131316", "about": "“Potent antagonists of somatostatin: synthesis and biology” (J Med Chem, 1998)", "target": "Somatostatin receptor type 4 (Homo sapiens, UniProt P31391)", "assay": "Binding affinity towards cloned human somatostatin 4 (hsst) receptor", "data": [{"smiles": "C[C@@H](O)[C@@H]1NC(=O)[C@H](CCCCN)NC(=O)[C@@H](Cc2c[nH]c3ccccc23)NC(=O)[C@H](Cc2ccccc2)NC(=O)[C@H](Cc2ccccc2)NC(=O)[C@H](N)CSSC[C@H](C(N)=O)NC(=O)[C@H](Cc2ccccc2)NC1=O", "values": [{"measurement": "IC50", "result": 406, "unit": "nM"}]}]}
